The target in one data set is EphA2 (Homo sapiens, UniProt P29317). Briefly: ELISA: inhibition of ephrin-A5 AP binding to immobilized EphA2 Fc. Also noted: the immobilized EphA2 extracellular domain fused to the Fc portion of an antibody (EphA2 Fc). The following applies: for inhibitory potency in ELISAs (in words): ephrin-A5-EphA2 binding; for fold higher potency in ELISA: amidated peptide compared with the peptide with unmodified C-terminus. The protocol:
(FIG. 2A) Representative ELISAs comparing the ability of the peptides to inhibit binding of ephrin-A5 fused to alkaline phosphatase (ephrin-A5 AP) to the immobilized EphA2 extracellular domain fused to the Fc portion of an antibody (EphA2 Fc). The graphs show averages±SE from triplicate measurements from a representative experiment. IC50 values calculated from the fitted curves in each experiment are shown. All concentrations are nM and the 100 nM peptide concentration is outlined in red. (FIG. 2B) Ephrin-A5 AP binding to the indicated EphA receptors and ephrin-B2 AP binding to the indicated EphB receptors in the presence of the indicated peptide, normalized to ephrin binding without peptide. The bars show averages±SE from triplicate measurements.
Background: An ELISA detects its analyte on a solid surface through an enzyme-linked reagent.

Chains of the proteins cited; added tags and fusions are not shown. Residues count along the entry.
UniProt P29317, 24-537 limits assumed, species assumed: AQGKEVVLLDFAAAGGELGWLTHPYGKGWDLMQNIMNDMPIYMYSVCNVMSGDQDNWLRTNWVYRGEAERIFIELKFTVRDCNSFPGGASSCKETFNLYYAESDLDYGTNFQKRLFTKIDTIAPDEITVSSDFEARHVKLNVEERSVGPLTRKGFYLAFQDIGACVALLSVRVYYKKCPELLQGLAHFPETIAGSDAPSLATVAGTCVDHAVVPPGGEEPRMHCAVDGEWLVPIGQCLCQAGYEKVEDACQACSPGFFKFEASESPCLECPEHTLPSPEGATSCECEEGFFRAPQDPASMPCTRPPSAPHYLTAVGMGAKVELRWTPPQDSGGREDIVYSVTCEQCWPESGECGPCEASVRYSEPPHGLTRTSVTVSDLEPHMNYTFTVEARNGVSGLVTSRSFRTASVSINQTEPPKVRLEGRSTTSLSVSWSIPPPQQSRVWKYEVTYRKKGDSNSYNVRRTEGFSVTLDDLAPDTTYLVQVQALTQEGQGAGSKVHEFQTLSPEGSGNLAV
UniProt P29317, 28-200: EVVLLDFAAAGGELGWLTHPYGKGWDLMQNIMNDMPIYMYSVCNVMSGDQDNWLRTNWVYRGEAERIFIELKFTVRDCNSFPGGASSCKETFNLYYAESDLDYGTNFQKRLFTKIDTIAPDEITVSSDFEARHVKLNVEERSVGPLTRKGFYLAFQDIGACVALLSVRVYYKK

For a further data set, the target named is T1, EphA2 LBD (Homo sapiens, UniProt P29317).
T1 construct: EphA2 LBD (residues 28-200); made in house; host or cells: E. coli Origami 2 (DE3)
The data set can be described thus: Isothermal titration calorimetry (ITC) of peptide binding. How it is done: For ITC, all peptides were dissolved in DMSO and both the EphA2 LBD and the peptides were diluted to obtain a final buffer containing 9.5 mM HEPES, pH 7.9, 95 mM NaCl, and 5% DMSO. […] Two-microliter aliquots of a peptide solution were injected into the cell containing 205 μL EphA2 LBD. 200-400 μM peptides were titrated into 20-40 μM EphA2 LBD. Experimental data were analyzed using the Origin software package (Microcal). The integrated values for the reaction heats were normalized to the amount of injected peptide after blank subtraction.
(Isothermal titration calorimetry measures the heat released or taken up as one component is titrated into another.)

Data set [1] is described as follows: Peptide solubility in PBS/H2O.

We go through 8 compounds from patent US12398179B2, “Nanomolar peptides and derivatives to differentially modulate ephrin receptors” (Sanford Burnham Prebys Medical Discovery Institute, priority 2019, dated 2025).

Molecules are shown by their SMILES. “Also recorded” adds a separate entry of the source.

For the compound `CSCC[C@H](NC(=O)[C@@H]1CCCN1C(=O)[C@@H](NC(=O)[C@H](CO)NC(=O)[C@H](CC(=O)O)NC(=O)[C@@H]1CCCN1C(=O)[C@H](Cc1ccc(O)cc1)NC(=O)[C@H](C)NC(=O)[C@H](CC(C)C)NC(=O)[C@@H](N)Cc1c[nH]c2ccccc12)C(C)C)C(N)=O` [WLAam], the “fold improved potency in ELISA” value at EphA2 (compared with YSA1-10 am) is on record as around 2 fold.

As for `CSCC[C@H](NC(=O)[C@@H]1CCCN1C(=O)[C@@H](NC(=O)[C@H](CO)NC(=O)[C@H](CC(=O)O)NC(=O)[C@@H]1CCCN1C(=O)[C@H](Cc1ccc(O)cc1)NC(=O)[C@H](C)NC(=O)[C@H](CO)NC(=O)[C@@H](N)Cc1ccc(O)cc1)C(C)C)C(N)=O` [YSA1-10am], the “inhibitory potency in ELISAs (in words)” value at EphA2 is listed as “as potent as YSA”.

Consider `CC(C)C[C@H](NC(=O)[C@H](Cc1c[nH]c2ccccc12)NC(=O)CCN)C(=O)N[C@@H](C)C(=O)N[C@@H](Cc1ccc(O)cc1)C(=O)N1CCC[C@H]1C(=O)N[C@@H](CC(=O)O)C(=O)N[C@@H](CO)C(=O)N[C@H](C(=O)N1CCC[C@H]1C(=O)N[C@@H](Cc1ccc(O)cc1)C(=O)N[C@@H](CCCNC(=N)N)C(=O)N1CCC[C@H]1C(=O)N[C@@H](CCCCNC(=O)CCCC[C@@H]1SC[C@@H]2NC(=O)N[C@@H]21)C(N)=O)C(C)C` [βA-WLA-YRPKam-bio], for which the “fold higher potency in ELISA” value on EphA2 is around 2 fold.

Turning to `CC(C)C[C@H](NC(=O)[C@H](Cc1c[nH]c2ccccc12)NC(=O)CCN)C(=O)N[C@@H](C)C(=O)N[C@@H](Cc1ccc(O)cc1)C(=O)N1CCC[C@H]1C(=O)N[C@@H](CC(=O)O)C(=O)N[C@@H](CO)C(=O)N[C@H](C(=O)N1CCC[C@H]1C(=O)N[C@@H](Cc1ccc(O)cc1)C(=O)N[C@@H](CCCNC(=N)N)C(=O)N1CCC[C@H]1C(=O)N[C@@H](CCCCN)C(N)=O)C(C)C` [βA-WLA-YRPKam], on EphA2 LBD, the “N (binding stoichiometry)” value stood at 0.96 ± 0.19, the “TΔS” value was found to be 21.25 ± 0.16 kcal/mol, the “ΔG (change in Gibbs energy)” value is −9.40 ± 0.01 and the “ΔH” value was -30.65 ± 0.17 kcal/mol. Moreover, the “fold higher potency in ELISA” value at EphA2 is on record as around 2 fold.

In the case of `CC(C)C[C@H](NC(=O)[C@H](Cc1c[nH]c2ccccc12)NC(=O)CCN)C(=O)N[C@@H](C)C(=O)N[C@@H](Cc1ccc(O)cc1)C(=O)N1CCC[C@H]1C(=O)N[C@@H](CC(=O)O)C(=O)N[C@@H](CO)C(=O)N[C@H](C(=O)N1CCC[C@H]1C(=O)N[C@@H](Cc1ccc(O)cc1)C(=O)N[C@@H](CCCNC(=N)N)C(=O)O)C(C)C` [βA-WLA-YR], the “solubility in aqueous solutions (in words)” value in data set [1] is listed as “improved peptide solubility in aqueous solutions”.

With `CC(C)C[C@H](NC(=O)[C@H](Cc1c[nH]c2ccccc12)NC(=O)CCN)C(=O)N[C@@H](C)C(=O)N[C@@H](Cc1ccc(O)cc1)C(=O)N1CCC[C@H]1C(=O)N[C@@H](CC(=O)O)C(=O)N[C@@H](CO)C(=O)N[C@H](C(=O)N1CCC[C@H]1C(=O)N[C@@H](Cc1ccc(O)cc1)C(=O)N[C@@H](CO)C(=O)N1CCC[C@H]1C(=O)N[C@@H](CCCCNC(=O)CCCC[C@@H]1SC[C@@H]2NC(=O)N[C@@H]21)C(=O)O)C(C)C` [βA-WLA-YSPK-bio], the “solubility in aqueous solutions (in words)” value in data set [1] is “not being soluble in aqueous solutions”. The “inhibitory potency in ELISAs (in words)” value at EphA2 is given as “only slightly decreased potency; also recorded: essentially unaffected”.

With `CC(C)C[C@H](NC(=O)[C@H](Cc1c[nH]c2ccccc12)NC(=O)CCN)C(=O)N[C@@H](C)C(=O)N[C@@H](Cc1ccc(O)cc1)C(=O)N1CCC[C@H]1C(=O)N[C@@H](CC(=O)O)C(=O)N[C@@H](CO)C(=O)N[C@H](C(=O)N1CCC[C@H]1C(=O)N[C@@H](Cc1ccc(O)cc1)C(N)=O)C(C)C` [βA-WLA-Yam], the “fold improved potency in ELISA” value at EphA2 (compared with βA-WLAam) is given as around 2 fold.

In the case of `CSCC[C@H](NC(=O)[C@@H]1CCCN1C(=O)[C@@H](NC(=O)[C@H](CO)NC(=O)[C@H](CC(=O)O)NC(=O)[C@@H]1CCCN1C(=O)[C@H](Cc1ccc(O)cc1)NC(=O)[C@H](C)NC(=O)[C@H](CC(C)C)NC(=O)[C@H](Cc1c[nH]c2ccccc12)NC(=O)CCN)C(C)C)C(N)=O` [βA-WLAam], the “fold increased potency in ELISA” value on EphA2 (compared with WLAam) is listed as around 2 fold.
